Assays:
[1] = molecular target: SMARCA2 (Homo sapiens, UniProt P51531); assay: SMARCA2 Cellular Degradation Assay (Western blot analysis on Jess platform); details: for Fold Selectivity SMARCA4/2: ratio DC50 SMARCA4 / DC50 SMARCA2
Protocol: SMARCA2 Cellular Degradation Assay
Western Blot Analysis for SMARCA2 Degradation
Frozen cell pellets were thawed on ice and resuspended in RIPA lysis buffer (Millipore, Cat. No. 20-188) supplemented with 0.2% SDS (Fisher Scientific, Cat. No. 24730020), 200 mM β-glycerophosphate (Alfa Aesar, Cat. No. J62121), 500 mM NaF (Rigaku, Cat. No. 1008046), protease inhibitor (1 tablet per 10 mL, Sigma, Cat. No. 11836170001), 250 U/μL benzonase (Millipore, Cat. No. 71206), 200 mM sodium orthovanadate (FivePhoton, Cat. No. ActVO-4), and 100 mM PMSF (Sigma, Cat. No. 10837091001). 50 μL lysis buffer was used to lyse each pellet containing 5×10E5-1×10E6 live cells extracted from tumors. Lysates were centrifuged for 10 mins at 20,817×g and lysate supernatants were saved for further analysis. Protein levels were determined by the BCA Assay performed according to manufacturer's protocol (EMD Millipore, Cat. No. 71285-3). Samples were evaluated by Western blot analysis on the Jess Platform (ProteinSimple). Lysates were diluted with complete lysis buffer (as described above) and 5 μg of total proteins were loaded onto each capillary. Samples were prepared using the ProteinSimple EZ Standard Pack 1 (Cat. No. PS-ST01EZ-8; containing tubes with powdered (5×) Fluorescent Master Mix, DTT, and biotinylated ladder) and run using the ProteinSimple 25-Capillary Cartridge kit (Cat. No. SM-W004; containing 25-capillary cartridge Wash reagent, and 10× Sample Buffer reagent), the ProteinSimple Anti-Rabbit HRP Detection Module for Jess (Cat. No. DM-001; containing Antibody Diluent, anti-rabbit secondary antibody, Luminol-S, Peroxide, and Streptavidin-HRP), and the ProteinSimple Anti-Mouse NIR Detection Module for Jess (Cat. No. DM-009; containing Antibody Diluent, anti-mouse NIR secondary antibody, and Streptavidin-NIR) as the following describes. The DTT was reconstituted with 40 μL water to make a 400 mM solution, 20 μL of the DTT solution plus 20 μL of 10× Sample Buffer were added to reconstitute the 5× Fluorescent Master Mix, and 20 μL of H2O was used to reconstitute the biotinylated ladder. For each sample, lysate (4 μL) was combined with 5× Fluorescent Master Mix (1 μL) and heated at 95° C. for 5 minutes. Samples were cooled and stored on ice. Primary antibody solution was made using anti-SMARCA2 antibody (Abcam, Cat. No. 240648, 1:10) and anti-beta-Actin antibody (Cell Signaling Technology, Cat. No. 3700S, 1:25) in antibody diluent. The 25-capillary cartridges were prepared per standard ProteinSimple protocol with each sample in a column. For the biotinylated ladder in column 1, the following were added: 5 µL of ladder sample in Row A, 10 μL of antibody diluent in Rows B and C, 10 μL of Streptavidin-NIR in Row D, and 15 μL of a 50:50 Luminol-s/Peroxide solution in Row E. For each test sample (columns 2-25), the following were added per column: 5 μL of sample in Row A, 10 μL of antibody diluent in Row B, 10 μL of primary antibody solution in Row C, 10 μL of secondary antibody in Row D, and 15 μL of a 50:50 Luminol-S/Peroxide solution in Row E. 500 μL wash buffer was added to the wash buffer wells in the cartridge and cartridge was spun at 1000×g for 5 minutes prior to loading into the Jess. Samples were run using the Chemiluminescence and Fluorescence immunoassays in the ProteinSimple Compass for SimpleWestern program (version 5.0.0). After running, SMARCA2, actin, and background curves were identified in the Compass software; note that in the Compass software, the electropherograms are also visualized as bands for comparison with standard Western blot outputs. The electropherogram area reading for each sample curve was normalized to that of the corresponding actin curve per column following background (capillary background) subtraction using the following equation: […]
Following normalization, the percentage of SMARCA2 remaining per sample relative to the vehicle control was calculated as follows: […]

Sequences of proteins named here, by UniProt entry; tags and fusion partners are left off.
UniProt P51531, whole entry: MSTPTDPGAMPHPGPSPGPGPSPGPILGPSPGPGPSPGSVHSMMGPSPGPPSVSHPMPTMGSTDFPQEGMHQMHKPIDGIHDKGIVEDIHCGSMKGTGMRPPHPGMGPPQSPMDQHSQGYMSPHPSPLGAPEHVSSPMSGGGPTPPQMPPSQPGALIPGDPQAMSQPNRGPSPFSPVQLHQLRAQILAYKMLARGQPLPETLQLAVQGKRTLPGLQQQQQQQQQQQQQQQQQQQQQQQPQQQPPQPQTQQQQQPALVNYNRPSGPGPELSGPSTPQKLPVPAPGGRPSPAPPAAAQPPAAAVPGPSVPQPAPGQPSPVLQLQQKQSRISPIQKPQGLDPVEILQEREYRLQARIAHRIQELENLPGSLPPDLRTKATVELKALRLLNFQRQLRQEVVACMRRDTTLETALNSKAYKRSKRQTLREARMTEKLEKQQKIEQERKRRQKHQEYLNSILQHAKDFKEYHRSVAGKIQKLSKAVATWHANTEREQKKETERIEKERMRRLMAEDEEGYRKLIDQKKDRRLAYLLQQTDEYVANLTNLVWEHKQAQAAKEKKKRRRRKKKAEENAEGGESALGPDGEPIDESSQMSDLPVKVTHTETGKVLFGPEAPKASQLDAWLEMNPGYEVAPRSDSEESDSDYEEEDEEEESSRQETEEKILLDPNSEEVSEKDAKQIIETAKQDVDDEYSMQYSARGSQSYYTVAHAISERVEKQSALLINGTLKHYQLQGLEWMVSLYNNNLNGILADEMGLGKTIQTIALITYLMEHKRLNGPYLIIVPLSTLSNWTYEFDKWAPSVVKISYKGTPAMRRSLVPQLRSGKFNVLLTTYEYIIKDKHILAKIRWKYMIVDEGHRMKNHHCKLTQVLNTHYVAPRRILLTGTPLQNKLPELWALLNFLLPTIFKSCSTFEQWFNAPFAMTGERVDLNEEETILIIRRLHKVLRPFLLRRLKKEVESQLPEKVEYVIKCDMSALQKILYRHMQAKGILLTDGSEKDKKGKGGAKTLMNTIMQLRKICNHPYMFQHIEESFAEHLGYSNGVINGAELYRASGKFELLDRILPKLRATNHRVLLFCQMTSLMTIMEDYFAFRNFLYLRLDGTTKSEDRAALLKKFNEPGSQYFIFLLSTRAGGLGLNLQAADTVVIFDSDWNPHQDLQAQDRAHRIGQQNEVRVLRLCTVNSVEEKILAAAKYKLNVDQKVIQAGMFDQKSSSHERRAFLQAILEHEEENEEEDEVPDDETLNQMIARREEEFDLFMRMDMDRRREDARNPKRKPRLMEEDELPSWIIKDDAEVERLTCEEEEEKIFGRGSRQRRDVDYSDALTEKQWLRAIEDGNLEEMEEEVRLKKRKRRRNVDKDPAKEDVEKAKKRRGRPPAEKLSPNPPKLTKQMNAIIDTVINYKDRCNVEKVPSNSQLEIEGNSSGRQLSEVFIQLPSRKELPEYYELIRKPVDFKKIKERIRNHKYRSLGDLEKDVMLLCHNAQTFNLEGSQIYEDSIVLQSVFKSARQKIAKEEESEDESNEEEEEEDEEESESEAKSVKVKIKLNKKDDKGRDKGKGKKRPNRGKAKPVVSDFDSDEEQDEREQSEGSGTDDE
UniProt P51532, whole entry: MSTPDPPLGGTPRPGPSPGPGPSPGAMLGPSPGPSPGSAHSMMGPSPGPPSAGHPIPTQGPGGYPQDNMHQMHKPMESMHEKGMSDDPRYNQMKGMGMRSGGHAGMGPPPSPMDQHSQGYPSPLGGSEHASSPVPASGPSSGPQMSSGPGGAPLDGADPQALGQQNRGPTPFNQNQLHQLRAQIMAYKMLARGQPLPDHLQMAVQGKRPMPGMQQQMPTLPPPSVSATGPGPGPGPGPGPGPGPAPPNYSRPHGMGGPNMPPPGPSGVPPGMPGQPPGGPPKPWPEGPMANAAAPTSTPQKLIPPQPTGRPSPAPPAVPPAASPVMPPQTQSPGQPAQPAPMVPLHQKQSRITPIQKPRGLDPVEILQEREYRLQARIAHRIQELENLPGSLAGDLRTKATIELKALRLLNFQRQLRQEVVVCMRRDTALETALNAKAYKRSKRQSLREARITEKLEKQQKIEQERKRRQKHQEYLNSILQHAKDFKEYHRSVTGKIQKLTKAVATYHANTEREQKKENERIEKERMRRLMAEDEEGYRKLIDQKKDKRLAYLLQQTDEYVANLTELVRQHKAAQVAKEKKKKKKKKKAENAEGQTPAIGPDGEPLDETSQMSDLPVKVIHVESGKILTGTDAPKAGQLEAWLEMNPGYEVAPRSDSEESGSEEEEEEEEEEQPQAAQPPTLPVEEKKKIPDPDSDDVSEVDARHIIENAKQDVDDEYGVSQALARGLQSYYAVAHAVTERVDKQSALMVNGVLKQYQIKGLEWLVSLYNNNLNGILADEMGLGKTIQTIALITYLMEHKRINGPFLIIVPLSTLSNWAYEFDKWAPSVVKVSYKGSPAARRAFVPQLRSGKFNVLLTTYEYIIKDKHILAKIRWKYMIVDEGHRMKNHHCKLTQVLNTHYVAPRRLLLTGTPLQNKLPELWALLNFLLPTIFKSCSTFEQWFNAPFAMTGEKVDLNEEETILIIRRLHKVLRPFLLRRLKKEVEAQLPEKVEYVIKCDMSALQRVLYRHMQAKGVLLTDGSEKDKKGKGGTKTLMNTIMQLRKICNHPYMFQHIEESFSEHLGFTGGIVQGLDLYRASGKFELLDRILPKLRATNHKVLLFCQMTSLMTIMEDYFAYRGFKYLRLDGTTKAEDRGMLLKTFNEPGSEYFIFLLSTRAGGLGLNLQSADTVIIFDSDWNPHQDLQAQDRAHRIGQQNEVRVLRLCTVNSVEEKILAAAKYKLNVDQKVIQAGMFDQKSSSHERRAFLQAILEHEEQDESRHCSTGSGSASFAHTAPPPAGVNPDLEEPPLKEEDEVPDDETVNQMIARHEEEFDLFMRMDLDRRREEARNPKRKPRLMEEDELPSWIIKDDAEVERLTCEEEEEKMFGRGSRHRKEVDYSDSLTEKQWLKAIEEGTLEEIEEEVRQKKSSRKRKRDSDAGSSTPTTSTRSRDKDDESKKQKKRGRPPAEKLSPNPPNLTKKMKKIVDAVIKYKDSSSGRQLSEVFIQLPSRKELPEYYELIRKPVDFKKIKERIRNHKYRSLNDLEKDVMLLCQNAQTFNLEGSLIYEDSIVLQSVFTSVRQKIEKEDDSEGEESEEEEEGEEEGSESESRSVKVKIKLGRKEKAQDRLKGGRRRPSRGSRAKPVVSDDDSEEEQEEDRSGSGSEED

[2] = molecular target: SMARCA4 (Homo sapiens, UniProt P51532); assay: Cellular degradation assay, SMARCA4 (Table 1)

Row | DC50 ([1]; read-out: DC50 (nM) SMARCA2, cellular degradation) | SMILES | Dmax (%) SMARCA2 ([1]; cellular degradation) | Fold Selectivity SMARCA4/2 [1] | Dmax (%) SMARCA4 [2]
1 | – | O=C1CCC(c2ccc(N3CCN(C(=O)C4CCN(C(=O)C5(c6ccccc6)CCN(c6cnnc(-c7ccccc7O)c6)CC5)CC4)CC3)cc2)C(=O)N1 (stereo not shown) | 36.19% | 1 | 6.81%
2 | 6.43 nM | O=C1CC[C@H](c2ccc(N3CCC(CN4CCC(NC(=O)C5(Oc6ccccc6)CCN(c6cnnc(-c7ccccc7O)c6)CC5)CC45CCC5)CC3)cc2)C(=O)N1 (stereo partly shown) | 79.63% | 1560 | 54.65%
3 | – | O=C1CCC(c2ccc(N3CCN(C(=O)C4CC5(CCN(C(=O)C6(c7ccccc7)CCN(c7cnnc(-c8ccccc8O)c7)CC6)C5)C4)CC3)cc2)C(=O)N1 (stereo not shown) | 24.32% | 1 | 5.73%

Reference: US20250051344A1, “BIFUNCTIONAL SELECTIVE DEGRADERS OF SMARCA2 AND THERAPEUTIC USES THEREOF” (Nurix Therapeutics, Inc., priority 2023, published 2025)
